These results are taken from ChEMBL document CHEMBL5236619, “Design and Optimization of 1H-1,2,3-Triazole-4-carboxamides as Novel, Potent, and Selective Inverse Agonists and Antagonists of PXR” (J Med Chem, 2022).

Molecules are shown by their SMILES.

The target of the data set is T1, PXR (NR1I2) ligand binding domain (Homo sapiens, UniProt O75469).
T1 sequence (O75469 whole entry): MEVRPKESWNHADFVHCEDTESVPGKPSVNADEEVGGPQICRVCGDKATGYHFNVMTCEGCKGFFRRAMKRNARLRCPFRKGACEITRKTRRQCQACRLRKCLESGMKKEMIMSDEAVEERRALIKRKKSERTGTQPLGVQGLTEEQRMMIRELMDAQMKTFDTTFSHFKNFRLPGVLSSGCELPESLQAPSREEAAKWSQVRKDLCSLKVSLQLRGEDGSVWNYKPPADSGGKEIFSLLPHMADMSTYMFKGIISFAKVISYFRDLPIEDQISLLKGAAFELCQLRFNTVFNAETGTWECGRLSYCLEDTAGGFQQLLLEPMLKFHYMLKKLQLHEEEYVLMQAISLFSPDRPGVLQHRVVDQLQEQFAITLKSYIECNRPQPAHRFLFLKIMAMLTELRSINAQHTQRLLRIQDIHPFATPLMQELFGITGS
As to the kind of experiment: Inhibition of BODIPY FL vindoline binding to recombinant human GST-tagged PXR LBD (111 to 434 residues) expressed in baculovirus infected insect cells at 10 uM incubated for 1 mins under shaking condition followed by 60 mins under dark condition by TR-FRET assay relative to control. As to conditions: probe BODIPY FL vindoline, time 61 min.

What is called inhibition is the drop in the measured response relative to a control, in per cent. With `CCCCOc1ccc(C(C)(C)C)cc1NC(=O)c1nnn(-c2cccc(OC)c2)c1C`, the inhibition at 1.017 h, 10 µM was 14%.
